Results taken from PubChem BioAssay AID581 (PCMD, 2007).
Only a part is listed here, and it is no random draw. Calls of active or inactive are those of the source.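 Rule for the calls: active = inhibition above 20% in each of the two mixture wells holding the compound; inactive = inhibition of 20% or less in either well.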

The chains behind the UniProt entries cited, without tags or fusion partners. Where a name states a change or a piece, a line headed by the entry shows the natural chain unless it says otherwise.
UniProt P08311: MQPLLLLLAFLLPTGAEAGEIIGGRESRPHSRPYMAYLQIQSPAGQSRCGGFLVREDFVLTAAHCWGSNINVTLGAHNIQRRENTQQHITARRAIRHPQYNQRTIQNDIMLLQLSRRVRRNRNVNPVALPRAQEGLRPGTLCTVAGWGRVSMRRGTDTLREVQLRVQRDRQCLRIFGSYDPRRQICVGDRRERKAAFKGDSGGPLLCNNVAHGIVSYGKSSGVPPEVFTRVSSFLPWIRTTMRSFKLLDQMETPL

biological target: Cathepsin G (Homo sapiens) (UniProt P08311); experiment: human cathepsin G inhibitors, primary screen, biochemical, pooled compound mixtures, AMC fluorescence (AID 581); details: purified enzyme, AMC-tetrapeptide fluorescence, stronger effect = higher value, screened at 5 µM (by protocol);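 note: 0% = enzyme control without mixture and 100% = blank lacking enzyme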

| SMILES | inhibition |
| --- | --- |
| O=C(OC1CN2CCC1CC2)C12CC3CC(CC(C3)C1)C2 (stereo not given) | inactive: -2.34% |
| COP1(=S)c2c(C)nn(CCC#N)c2N=C(c2ccc(F)cc2)N1C (stereo not given) | inactive: 9.21% |
| O=C(COc1ccccc1)OC1CN2CCC1CC2 (stereo not given) | inactive: 9.91% |
| O=P1(Nc2ncccn2)COc2ccccc2OC1 | inactive: 12.2% |
| Cc1ccc(OCC(=O)OC2CN3CCC2CC3)cc1 (stereo not given) | inactive: 6.45% |
| O=P1(Nc2ccc(Br)cn2)COc2ccccc2OC1 | inactive: -32.9% |
| Cc1nn(-c2ccccc2)c2c1P(=O)(N1CCOCC1)N(C)C(c1ccccc1)=N2 (stereo not given) | inactive: 1.25% |
| O=P1(Nc2ccccn2)COc2ccccc2OC1 | inactive: 10.2% |
| Clc1n[nH]nc1-c1nn[nH][15n]1 | inactive: 6.87% |
| Cc1cccc(OCC(=O)OC2CN3CCC2CC3)c1 (stereo not given) | inactive: 16.1% |
| CCOP1(=S)c2c(C)nn(CCC#N)c2N=C(c2ccc(F)cc2)N1C (stereo not given) | inactive: 0.65% |
| O=P(Nc1nccs1)(c1ccccc1)c1nc2ccccc2s1 (stereo not given) | inactive: 24% |
| CCOP1(=S)c2c(C)nn(CCC#N)c2N=C(c2ccccc2F)N1C (stereo not given) | inactive: -13.6% |
| COC(=O)c1cc2c(s1)N=C(c1ccccc1)N(C)P2(=O)N1CCOCC1 (stereo not given) | inactive: 12.9% |
| O=P1(Nc2nc3ccc(Cl)cc3s2)COc2ccccc2O1 (stereo not given) | inactive: 4.07% |
| O=P(Nc1nccs1)(c1ccccc1)c1ccccc1 | inactive: -1.94% |
| c1nnnn1CCn1cnnn1 | inactive: -1.98% |
| O=C(OC1CN2CCC1CC2)c1cccc(Cl)c1 (stereo not given) | inactive: -5.55% |
| CCc1nc2c(n1)c1c(non1O)c1c2no[n+]1[O-] | inactive: -2.55% |
| Cc1c2non([O-])c-2c(C)[n+](=O)[n+]1[O-] | inactive: -0.89% |
